What was measured:
Endo S [1] = target: T1, Endo S (Streptococcus pyogenes serotype M1, UniProt Q99Y92); assay: Substrate specificity: transglycosylation of disaccharide linkers onto wild-type pertuzumab, LC-MS; conditions: Endo S 0.4 mg/mL; wild-type pertuzumab 10 mg/mL; linker 1.67 mM; pH 7.4, 25°C; after 6 hours
Endo S2 [2] = target: T2, Endo S2 (Streptococcus pyogenes serotype M49, UniProt T1WGN1); assay: as above; conditions: Endo S2 0.4 mg/mL; wild-type pertuzumab 10 mg/mL; linker 1.67 mM; pH 7.4, 25°C; after 6 hours
Endo Se2 [3] = assay: as above; conditions: Endo Se2 0.4 mg/mL; wild-type pertuzumab 10 mg/mL; linker 1.67 mM; pH 7.4, 25°C; after 6 hours
Endo Si [4] = assay: as above; conditions: Endo Si 0.4 mg/mL; wild-type pertuzumab 10 mg/mL; linker 1.67 mM; pH 7.4, 25°C; after 6 hours
Endo S [5] = target: T1, Endo S; assay: Transglycosylation (transfer) activity toward disaccharide linkers, deglycosylated antibody, time course, reduced LC-MS; conditions: for Transglycosylation efficiency (%): Endo S 0.4 mg/mL, deglycosylated antibody 10 mg/mL, linker 1.67 mM, pH 7.4, 25°C; for transglycosylation efficiency (in words): Endo S, deglycosylated antibody
Description: (§1) A wild-type antibody comprising the Fc segment of SEQ ID NO: 5 was dissolved in a buffer containing 20 mM phosphate and 150 mM NaCl at pH 7.4 (10 mg/mL). Wild-type Endo S2 was added to a final concentration of 0.4 mg/mL for hydrolysis, followed by incubation overnight at 37°C. A deglycosylated antibody containing one N-acetylglucosamine or core-fucosylated N-acetylglucosamine was obtained through purification using Protein A magnetic beads.
(§2) The prepared deglycosylated antibody, disaccharide linker (i.e., compounds G0-G2), and wild-type endoglycosidase (i.e., Endo S, Endo S2, Endo Si, or Endo Se2) were used such that the concentrations of the respective components were sequentially 10 mg/mL, 1.67 mM (25 equivalents relative to the antibody concentration), and 0.4 mg/mL. The pH of the reaction system was adjusted to 7.4, and the reaction temperature was 25°C. At 0.5, 1, 2, 3, and 6 hours, 4 µL of sample was taken out, and 36 µL of PBS solution containing 0.1% formic acid was added to terminate the reaction, followed by analysis by reduced LC-MS.

By UniProt entry, the sequences of proteins in these tests, tags left out. Residues count along the entry.
UniProt Q99Y92, 37-995 limits assumed: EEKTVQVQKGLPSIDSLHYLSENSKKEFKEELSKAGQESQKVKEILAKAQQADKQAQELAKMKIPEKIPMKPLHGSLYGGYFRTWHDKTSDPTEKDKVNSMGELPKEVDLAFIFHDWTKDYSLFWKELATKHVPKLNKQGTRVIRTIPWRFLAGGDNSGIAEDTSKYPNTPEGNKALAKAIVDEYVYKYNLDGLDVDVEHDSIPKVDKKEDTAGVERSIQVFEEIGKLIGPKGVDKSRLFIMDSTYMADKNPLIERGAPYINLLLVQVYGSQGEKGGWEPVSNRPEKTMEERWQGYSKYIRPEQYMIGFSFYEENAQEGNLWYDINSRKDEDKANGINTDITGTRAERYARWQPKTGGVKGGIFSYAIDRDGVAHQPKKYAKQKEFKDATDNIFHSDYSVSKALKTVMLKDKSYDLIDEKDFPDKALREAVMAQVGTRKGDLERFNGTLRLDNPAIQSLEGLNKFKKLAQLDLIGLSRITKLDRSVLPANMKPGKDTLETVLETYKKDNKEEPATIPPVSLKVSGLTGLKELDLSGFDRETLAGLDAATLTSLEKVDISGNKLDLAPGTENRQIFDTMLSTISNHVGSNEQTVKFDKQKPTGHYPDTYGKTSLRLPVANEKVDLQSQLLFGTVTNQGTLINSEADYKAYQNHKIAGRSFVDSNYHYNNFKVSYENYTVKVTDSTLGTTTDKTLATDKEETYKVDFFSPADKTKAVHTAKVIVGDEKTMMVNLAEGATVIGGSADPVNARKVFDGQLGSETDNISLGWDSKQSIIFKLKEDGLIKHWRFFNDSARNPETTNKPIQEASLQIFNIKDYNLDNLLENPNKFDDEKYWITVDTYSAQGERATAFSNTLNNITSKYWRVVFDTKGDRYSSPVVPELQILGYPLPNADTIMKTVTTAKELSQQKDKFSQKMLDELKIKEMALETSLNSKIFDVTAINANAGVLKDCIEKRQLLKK
UniProt T1WGN1, 38-843 limits assumed: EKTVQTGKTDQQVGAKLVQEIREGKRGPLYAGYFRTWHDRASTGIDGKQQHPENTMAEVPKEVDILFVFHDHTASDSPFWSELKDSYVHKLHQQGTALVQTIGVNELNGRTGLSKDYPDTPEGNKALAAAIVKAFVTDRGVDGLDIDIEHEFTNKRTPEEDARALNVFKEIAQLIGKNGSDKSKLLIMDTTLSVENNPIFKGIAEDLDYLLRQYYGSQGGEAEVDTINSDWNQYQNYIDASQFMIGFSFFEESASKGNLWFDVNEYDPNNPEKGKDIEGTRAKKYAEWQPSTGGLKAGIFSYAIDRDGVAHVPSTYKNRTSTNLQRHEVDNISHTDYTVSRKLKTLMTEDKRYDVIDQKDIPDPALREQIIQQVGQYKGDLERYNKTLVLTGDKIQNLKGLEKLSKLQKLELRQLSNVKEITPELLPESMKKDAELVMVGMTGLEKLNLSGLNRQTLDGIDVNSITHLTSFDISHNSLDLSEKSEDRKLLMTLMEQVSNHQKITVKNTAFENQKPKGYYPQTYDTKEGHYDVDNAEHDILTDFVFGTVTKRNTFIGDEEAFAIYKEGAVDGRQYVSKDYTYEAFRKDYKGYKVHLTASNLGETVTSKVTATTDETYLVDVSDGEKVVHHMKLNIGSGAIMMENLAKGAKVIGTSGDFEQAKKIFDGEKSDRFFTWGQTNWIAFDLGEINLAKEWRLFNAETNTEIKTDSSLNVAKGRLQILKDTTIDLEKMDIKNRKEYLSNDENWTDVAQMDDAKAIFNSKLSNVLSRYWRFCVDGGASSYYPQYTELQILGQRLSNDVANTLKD

Endo S2 [6] = target: T2, Endo S2; assay: as above; conditions: Endo S2 0.4 mg/mL, deglycosylated antibody 10 mg/mL, linker 1.67 mM, pH 7.4, 25°C
Description: as §1, §2

Endo Se2 [7] = assay: as above; conditions: Endo Se2 0.4 mg/mL, deglycosylated antibody 10 mg/mL, linker 1.67 mM, pH 7.4, 25°C
Description: as §1, §2

Endo Si [8] = assay: as above; conditions: Endo Si 0.4 mg/mL, deglycosylated antibody 10 mg/mL, linker 1.67 mM, pH 7.4, 25°C
Description: as §1, §2

| Compound | Transglycosylation efficiency (%) (Endo S [1]) | Transglycosylation efficiency (%) (Endo S2 [2]) | Transglycosylation efficiency (%) (Endo Se2 [3]) | Transglycosylation efficiency (%) (Endo Si [4]) | Transglycosylation efficiency (%) (Endo S [5]; 0.5 hours) | Transglycosylation efficiency (%) (Endo S [5]; 1 hour) | Transglycosylation efficiency (%) (Endo S [5]; 2 hours) | Transglycosylation efficiency (%) (Endo S [5]; 3 hours) | Transglycosylation efficiency (%) (Endo S [5]; 6 hours) | Transglycosylation efficiency (%) (Endo S2 [6]; 0.5 hours) | Transglycosylation efficiency (%) (Endo S2 [6]; 1 hour) | Transglycosylation efficiency (%) (Endo S2 [6]; 2 hours) | Transglycosylation efficiency (%) (Endo S2 [6]; 3 hours) | Transglycosylation efficiency (%) (Endo S2 [6]; 6 hours) | Transglycosylation efficiency (%) (Endo Se2 [7]; 0.5 hours) | Transglycosylation efficiency (%) (Endo Se2 [7]; 1 hour) | Transglycosylation efficiency (%) (Endo Se2 [7]; 2 hours) | Transglycosylation efficiency (%) (Endo Se2 [7]; 3 hours) | Transglycosylation efficiency (%) (Endo Se2 [7]; 6 hours) | Transglycosylation efficiency (%) (Endo Si [8]; 0.5 hours) | further results |
| --- | --- | --- | --- | --- | --- | --- | --- | --- | --- | --- | --- | --- | --- | --- | --- | --- | --- | --- | --- | --- | --- |
| CC1=N[C@H]2[C@@H](O1)O[C@H](CO)[C@@H](O[C@@H]1O[C@H](C=NOCCN=[N+]=[N-])[C@H](O)[C@H](O)[C@H]1O)[C@@H]2O | 56.4 | >95 | >95 | >95 | 15.7 | 26.2 | 36.6 | 43.7 | 56.4 | 65.7 | 82.7 | 92.4 | 94.8 | 97.3 | 96.6 | 97.9 | 98.0 | 97.2 | 96.2 | 89.3 | Transglycosylation efficiency (%) (Endo Si [8]; 1 hour): 97.1%; Transglycosylation efficiency (%) (Endo Si [8]; 2 hours): 97.8%; Transglycosylation efficiency (%) (Endo Si [8]; 3 hours): 97.8%; Transglycosylation efficiency (%) (Endo Si [8]; 6 hours): 97.6% |
| CC1=N[C@H]2[C@@H](O1)O[C@H](CO)[C@@H](S[C@@H]1O[C@H](C=NOCCN=[N+]=[N-])[C@H](O)[C@H](O)[C@H]1O)[C@@H]2O | 21.1 | 87.5 | 94.7 | >95 | 5.6 | 9.3 | 13.0 | 15.7 | 21.1 | 33.1 | 49.2 | 67.7 | 77.3 | 87.5 | 64.8 | 82.1 | 92.4 | 94.5 | 94.7 | 93.2 | transglycosylation efficiency (in words) (Endo S [5]): weak transglycosylation efficiency; Transglycosylation efficiency (%) (Endo Si [8]; 1 hour): 95.2%; Transglycosylation efficiency (%) (Endo Si [8]; 2 hours): 95.5%; Transglycosylation efficiency (%) (Endo Si [8]; 3 hours): 95.5%; Transglycosylation efficiency (%) (Endo Si [8]; 6 hours): 95.5% |
| CC1=N[C@H]2[C@@H](O1)O[C@H](CN=[N+]=[N-])[C@@H](O[C@@H]1O[C@H](C=NOCCN=[N+]=[N-])[C@H](O)[C@H](O)[C@H]1O)[C@@H]2O | 30.5 | 82.7 | >95 | 93.8 | 7.0 | 12.3 | 17.9 | 22.1 | 30.5 | 22.2 | 36.2 | 51.9 | 61.0 | 82.7 | 92.2 | 92.9 | 92.8 | 92.7 | 97.2 | 93.4 | transglycosylation efficiency (in words) (Endo S [5]): weak transglycosylation efficiency; Transglycosylation efficiency (%) (Endo Si [8]; 1 hour): 93.4%; Transglycosylation efficiency (%) (Endo Si [8]; 2 hours): 93.3%; Transglycosylation efficiency (%) (Endo Si [8]; 3 hours): 93.1%; Transglycosylation efficiency (%) (Endo Si [8]; 6 hours): 93.8% |

— patent publication EP4840868A1, “NOVEL DISACCHARIDE LINKER, PREPARATION METHOD THEREFOR AND USE THEREOF” (dated 2026)
